Measurements taken from US10583093B2.
Only a part of the results on these compounds is given; other tests are left out.

Assay: Saturation solubilities of fentanyl in solubility-decreasing additives

CCC(=O)N(c1ccccc1)C1CCN(CCc2ccccc2)CC1
Saturation solubility (in Diglycerol): <1.5 % by weight
Saturation solubility (in Dioctylcyclohexane): <1.9 % by weight
Saturation solubility (in Glycerol): <1.5 % by weight
Saturation solubility (in Paraffin, liquid): <1.5 % by weight
Saturation solubility (in Polyethylene glycol 400): 7.5 % by weight
